Reference: patent publication US10287286B2, “Compounds” (Takeda Pharmaceutical Company Limited, priority 2015, dated 2019)

Chains of the proteins cited; added tags and fusions are not shown.
UniProt Q96KS0, whole entry: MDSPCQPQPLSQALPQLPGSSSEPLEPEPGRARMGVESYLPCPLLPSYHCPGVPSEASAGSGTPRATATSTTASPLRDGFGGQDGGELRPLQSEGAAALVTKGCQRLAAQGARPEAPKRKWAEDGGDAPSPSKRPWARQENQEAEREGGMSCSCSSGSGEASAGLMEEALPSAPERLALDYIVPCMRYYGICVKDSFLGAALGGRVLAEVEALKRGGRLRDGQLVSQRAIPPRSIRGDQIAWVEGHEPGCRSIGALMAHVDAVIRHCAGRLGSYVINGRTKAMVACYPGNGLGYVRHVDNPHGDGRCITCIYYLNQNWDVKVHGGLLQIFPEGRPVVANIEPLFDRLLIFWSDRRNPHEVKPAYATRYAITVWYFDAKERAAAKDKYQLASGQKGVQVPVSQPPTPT

Molecular target: PHD1 enzyme (residues 1-407) (Homo sapiens (Human), UniProt Q96KS0)
Assay: PHD1 Enzyme Assay (UPLC-MS detection of hydroxylated peptide product)
Assay type: biochemical
Settings: 20 nM, 60 min pre-incubation at room temperature

Row | SMILES | IC50 [nM]
1 | N#Cc1ccc(-c2cc(NC(=O)[C@@H]3CCCO3)cc3ncnn23)cc1F [Example 159, (2S)-N-[5-(4-cyano-3-fluorophenyl)-[1,2,4]triazolo[1,5-a]pyridin-7-yl]oxolane-2-carboxamide] | 147
2 | CC1CCN(c2cc(-c3ccc(C#N)cc3)n3ncnc3n2)C1 (stereo not drawn) [Example 90, 4-[5-(3-methylpyrrolidin-1-yl)-[1,2,4]triazolo[1,5-a]pyrimidin-7-yl]benzonitrile] | 574
3 | N#Cc1ncc(-c2ccnc3ncnn23)cc1F [Example 206, 3-fluoro-5-{[1,2,4]triazolo[1,5-a]pyrimidin-7-yl}pyridine-2-carbonitrile] | 3620
4 | Fc1cc(-c2cccc3ncnn23)ccc1Cl [Example 12, 5-(4-chloro-3-fluorophenyl)-[1,2,4]triazolo[1,5-a]pyridine] | 452
5 | N#Cc1ccc(-c2cc(C(=O)NCc3cccc(Cl)c3)cc3ncnn23)cc1 [Example 55, N-[(3-chlorophenyl)methyl]-5-(4-cyanophenyl)-[1,2,4]triazolo[1,5-a]pyridine-7-carboxamide] | 307
6 | N#Cc1ccc(-c2cc(NC(=O)CC3COC3)cc3ncnn23)cc1F [Example 173, N-[5-(4-cyano-3-fluorophenyl)-[1,2,4]triazolo[1,5-a]pyridin-7-yl]-2-(oxetan-3-yl)acetamide] | 63
7 | N#Cc1ccc(-c2cc(NC(=O)C3CCO3)cc3ncnn23)cc1F (stereo not drawn) [Example 243, N-[5-(4-Cyano-3-fluorophenyl)-[1,2,4]triazolo[1,5-a]pyridin-7-yl]oxetane-2-carboxamide] | 1290
8 | Cc1cc(C#N)ccc1-c1cc(NC(=O)C2CC2)cc2ncnn12 [Example 250, N-[5-(4-Cyano-2-methylphenyl)-[1,2,4]triazolo[1,5-a]pyridin-7-yl]cyclopropanecarboxamide] | 88
9 | N#Cc1ccc(-c2cc(NCC3COC3)cc3ncnn23)cc1F [Example 125, 2-fluoro-4-{7-[(oxetan-3-ylmethyl)amino]-[1,2,4]triazolo[1,5-a]pyridin-5-yl}benzonitrile] | 208
10 | CC(=O)Nc1cc(-c2ccc(C#N)cc2Cl)n2ncnc2c1 [Example 261, N-[5-(2-Chloro-4-cyanophenyl)-[1,2,4]triazolo[1,5-a]pyridin-7-yl]acetamide] | 96
11 | N#Cc1ccc(-c2cc(NC(=O)C3CC(F)C3)cc3ncnn23)cc1F (stereo not drawn) [Example 172, N-[5-(4-cyano-3-fluorophenyl)-[1,2,4]triazolo[1,5-a]pyridin-7-yl]-3-fluorocyclobutane-1-carboxamide] | 220
12 | CN1CCCC(Nc2cc(-c3ccc(C#N)cc3)n3ncnc3n2)C1 (stereo not drawn) [Example 78, 4-{5-[(1-methylpiperidin-3-yl)amino]-[1,2,4]triazolo[1,5-a]pyrimidin-7-yl}benzonitrile] | 1830
13 | COc1cccc(CNC(=O)c2cc(-c3ccc(C#N)cc3)n3ncnc3c2)c1 [Example 57, 5-(4-cyanophenyl)-N-[(3-methoxyphenyl)methyl]-[1,2,4]triazolo[1,5-a]pyridine-7-carboxamide] | 445
14 | N#Cc1ncc(-c2cccc3ncnn23)cc1F [Example 24, 3-fluoro-5-{[1,2,4]triazolo[1,5-a]pyridin-5-yl}pyridine-2-carbonitrile] | 99
15 | N#Cc1ccc(-c2cc(CNC(=O)C3CC3)cc3ncnn23)cc1 [Example 226, N-{[5-(4-Cyanophenyl)-[1,2,4]triazolo[1,5-a]pyridin-7-yl]methyl}cyclopropanecarboxamide] | 135
16 | CN(C)CCNS(=O)(=O)c1cc(-c2ccc(C#N)cc2)n2ncnc2c1 [Example 178, 5-(4-Cyanophenyl)-N-[2-(dimethylamino)ethyl]-[1,2,4]triazolo[1,5-a]pyridine-7-sulfonamide] | 4000
17 | N#Cc1ccc(-c2cc(CNCC(F)F)cc3ncnn23)cc1 [Example 187, 4-(7-{[(2,2-difluoroethyl)amino]methyl}-[1,2,4]triazolo[1,5-a]pyridin-5-yl)benzonitrile] | 1400
18 | N#Cc1ccc(-c2cccc3ncnn23)c(Br)c1 [Example 36, 3-bromo-4-{[1,2,4]triazolo[1,5-a]pyridin-5-yl}benzonitrile] | 67
19 | N#Cc1ccc(-c2cc(N)nc3ncnn23)cc1 [Example 217, 4-{5-Amino-[1,2,4]triazolo[1,5-a]pyrimidin-7-yl}benzonitrile] | 376
20 | N#Cc1ccc(-c2cc(N3CCC4(CCC4)CC3)nc3ncnn23)cc1 [Example 98, 4-(5-{7-azaspiro[3.5]nonan-7-yl}-[1,2,4]triazolo[1,5-a]pyrimidin-7-yl)benzonitrile] | 427
21 | N#Cc1ccc(-c2cc(NC(=O)C3COC3)cc3ncnn23)cc1F [Example 167, N-[5-(4-cyano-3-fluorophenyl)-[1,2,4]triazolo[1,5-a]pyridin-7-yl]oxetane-3-carboxamide] | 225
22 | CC(=O)Nc1cc(-c2ccc(C#N)c(F)c2C)n2ncnc2c1 [Example 233, N-[5-(4-Cyano-3-fluoro-2-methylphenyl)-[1,2,4]triazolo[1,5-a]pyridin-7-yl]acetamide] | 69
23 | Cc1nc(C#N)ccc1-c1cccc2ncnn12 [Example 28, 6-methyl-5-{[1,2,4]triazolo[1,5-a]pyridin-5-yl}pyridine-2-carbonitrile] | 93

Row | SMILES | IC50 [nM]
24 | Cc1nc(C#N)nc(C)c1-c1cccc2ncnn12 [Example 211, 4,6-Dimethyl-5-{[1,2,4]triazolo[1,5-a]pyridin-5-yl}pyrimidine-2-carbonitrile] | 25
25 | CC1(CNc2cc(-c3ccc(C#N)c(F)c3)n3ncnc3c2)COC1 [Example 127, 2-fluoro-4-(7-{[(3-methyloxetan-3-yl)methyl]amino}-[1,2,4]triazolo[1,5-a]pyridin-5-yl)benzonitrile] | 47
26 | Cc1cc(C#N)ccc1-c1cc(NC(=O)CO)cc2ncnn12 [Example 238, N-[5-(4-Cyano-2-methylphenyl)-[1,2,4]triazolo[1,5-a]pyridin-7-yl]-2-hydroxyacetamide] | 96
27 | N#Cc1ccc(-c2cc(NC(=O)Cc3ccccc3)cc3ncnn23)cc1 [Example 152, N-[5-(4-cyanophenyl)-[1,2,4]triazolo[1,5-a]pyridin-7-yl]-2-phenylacetamide] | 42
28 | CC(=O)N(C)c1cc(-c2ccc(C#N)c(F)c2)n2ncnc2c1 [Example 136, N-[5-(4-cyano-3-fluorophenyl)-[1,2,4]triazolo[1,5-a]pyridin-7-yl]-N-methylacetamide] | 3220
29 | N#Cc1ccc(-c2cc(NC(=O)C3CC3(F)F)cc3ncnn23)cc1F (stereo not drawn) [Example 168, N-[5-(4-cyano-3-fluorophenyl)-[1,2,4]triazolo[1,5-a]pyridin-7-yl]-2,2-difluorocyclopropane-1-carboxamide] | 218
30 | N#Cc1cc(F)c(-c2cc(N)cc3ncnn23)c(F)c1 [Example 255, 4-{7-Amino-[1,2,4]triazolo[1,5-a]pyridin-5-yl}-3,5-difluorobenzonitrile] | 157
31 | N#Cc1ccc(-c2cc(NC3CC3)nc3ncnn23)cc1 [Example 96, 4-[5-(cyclopropylamino)-[1,2,4]triazolo[1,5-a]pyrimidin-7-yl]benzonitrile] | 32
32 | Cc1nc(C#N)ccc1-c1cc(O)cc2ncnn12 [Example 251, 5-{7-Hydroxy-[1,2,4]triazolo[1,5-a]pyridin-5-yl}-6-methylpyridine-2-carbonitrile] | 17
33 | CN1CCC(CNc2cc(-c3ccc(C#N)cc3)n3ncnc3n2)CC1 [Example 80, 4-(5-{[(1-methylpiperidin-4-yl)methyl]amino}-[1,2,4]triazolo[1,5-a]pyrimidin-7-yl)benzonitrile] | 3000
34 | CC(C)CC1CCCN1c1cc(-c2ccc(C#N)cc2)n2ncnc2n1 (stereo not drawn) [Example 94, 4-{5-[2-(2-methylpropyl)pyrrolidin-1-yl]-[1,2,4]triazolo[1,5-a]pyrimidin-7-yl}benzonitrile] | 238
35 | N#Cc1ccc(-c2cc(CNC3CCOC3)cc3ncnn23)cc1 (stereo not drawn) [Example 192, 4-(7-{[(oxolan-3-yl)amino]methyl}-[1,2,4]triazolo[1,5-a]pyridin-5-yl)benzonitrile] | 1300
36 | CN(C)c1cc(-c2ccc(C#N)cc2)n2ncnc2n1 [Example 82, 4-[5-(dimethylamino)-[1,2,4]triazolo[1,5-a]pyrimidin-7-yl]benzonitrile] | 11
37 | N#Cc1ccc(-c2cc(NC(=O)OCC3CC3)cc3ncnn23)cc1F [Example 195, cyclopropylmethyl N-[5-(4-cyano-3-fluorophenyl)-[1,2,4]triazolo[1,5-a]pyridin-7-yl]carbamate] | 14
38 | CC(=O)Nc1cc(-c2cnc(C#N)cc2C)n2ncnc2c1 [Example 247, N-[5-(6-Cyano-4-methylpyridin-3-yl)-[1,2,4]triazolo[1,5-a]pyridin-7-yl]acetamide] | 80
39 | Cc1ccc(NC(=O)c2cc(-c3ccc(C#N)cc3)n3ncnc3c2)nn1 [Example 53, 5-(4-cyanophenyl)-N-(6-methylpyridazin-3-yl)-[1,2,4]triazolo[1,5-a]pyridine-7-carboxamide] | 387
40 | N#Cc1ccc(-c2cc(NC=O)cc3ncnn23)cc1F [Example 236, N-[5-(4-Cyano-3-fluorophenyl)-[1,2,4]triazolo[1,5-a]pyridin-7-yl]formamide] | 65
41 | Cc1cc(C#N)ncc1-c1cccc2ncnn12 [Example 25, 4-methyl-5-{[1,2,4]triazolo[1,5-a]pyridin-5-yl}pyridine-2-carbonitrile] | 56
42 | COC1CN(Cc2cc(-c3ccc(C#N)cc3)n3ncnc3c2)C1 [Example 191, 4-{7-[(3-methoxyazetidin-1-yl)methyl]-[1,2,4]triazolo[1,5-a]pyridin-5-yl}benzonitrile] | 2900
43 | N#Cc1ccc(-c2cc(C(N)=O)cc3ncnn23)cc1 [Example 58, 5-(4-cyanophenyl)-[1,2,4]triazolo[1,5-a]pyridine-7-carboxamide] | 145
44 | N#Cc1ccc(-c2c(F)ccc3ncnn23)cc1F [Example 214, 2-Fluoro-4-{6-fluoro-[1,2,4]triazolo[1,5-a]pyridin-5-yl}benzonitrile] | 632
45 | N#Cc1ccc(-c2cc(NCC3COC3)cc3ncnn23)cc1 [Example 107, 4-{7-[(oxetan-3-ylmethyl)amino]-[1,2,4]triazolo[1,5-a]pyridin-5-yl}benzonitrile] | 5
